From PubChem
Yeast UUG start-1: alters start codon recognition fidelity in yeast; S. cerevisiae UUG-firefly luciferase reporter, luminescence/redox ratio; activity score, % at 18.7 µM; hit rate 0.13% among 350,000;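 active = replicate mean at a twofold rise or more, about +100% in these data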;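 also: firefly luciferase made from a UUG start codon reports start codon fidelity; reporter light over untreated wells divided by growth signal over untreated wells; some hits fall short of that in this replicate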
EWS-Fli inh: blocks EWS/Fli oncoprotein-driven transcription | A673 NR0B1-luciferase reporter, viability-normalised | inhibition, % at 12.6 µM | 350,000 tested, 0.67% active;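 active = mean inhibition of at least 50% after viability correction, with every replicate also passing that limit; inconclusive = mean reaches 50% but only one of two replicates passes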;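 also: firefly luciferase signal divided by Alamar Blue viability fluorescence both relative to DMSO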
miR122 inh: blocks miR-122 activity in Huh7 sensor cells | activation (reporter increase), % at 12.5 µM | AID 602342 | 340,000 tested, 0.3% active | Huh7 miR-122 Renilla luciferase sensor, 48 h; neutral wells = 0, positive control = 100;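 active = mean replicate activation score at least 90 and every replicate individually at or above 90; inconclusive = only one of the two criteria met; inactive = neither criterion met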;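 also: higher luciferase means less miR-122 activity so hits act as miR-122 inhibitors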
LGR2 inh: Drosophila LGR2 receptor signaling inhibition; inhibition, % at 9.99 µM; HEK293 LGR2, CRE-luciferase, bursicon-stimulated, 4 h; AID 720647; 380,000 tested, 0.35% active;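 active = drop in luminescence signal, shown as inhibition above about 50% in the replicate tests, limit read from the data, passing the limit was not always enough; inconclusive = probably only some replicates passing the limit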;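 also: agonist challenge used bursicon conditioned medium at about half maximal strength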
PglD DTNB: inhibitors of Campylobacter jejuni PglD acetyltransferase; purified PglD enzyme, DTNB colorimetric CoA detection; inhibition, % at 12.5 µM; 360,000 tested, 0.098% active; AID 602405; in the data active = inhibition above about 16%, passing the limit was not always enough; inconclusive = no clear call, values can overlap the other calls
CFTR F508del cor: correctors of CFTR F508del function in bronchial epithelial cells. CFBE cells, YFP halide quenching; stimulated with forskolin plus potentiator P3; % fluorescence drop versus neutral controls. 350,000 tested, 0.36% active. activity (quench increase), % at 7.58 µM. AID 720511;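 active = mean added fluorescence quench of at least 8% versus neutral control, with both replicates also reaching 8%; inconclusive = only one of the mean or replicate conditions met; inactive = mean below 8% and not both replicates reaching 8%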;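 also: cells transiently co-express mutant CFTR-F508del with the halide-sensitive YFP; corrector assay measuring rescue of mutant channel to the surface after 24 h compound exposure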
Yeast UUG start-2: alters UUG start codon use in yeast; shares compounds with Yeast UUG start-1; S. cerevisiae UUG-start firefly luciferase, luminescence, 4 h; 100% means double the DMSO signal; activation, % at 38 µM; 540 tested, under 10 active;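 active = signal increase whose fitted curve reaches an absolute level of 40 at a concentration under 10 µM; inactive = activity opposite to the expected increase, or the rest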
* marks the source's active call; other numbers are inactive results; ? = inconclusive; / = no result given; ! = not active in a repeat. Rows were chosen to be rich in hits. Some 1.3% of all compounds tested hit in one or more screens of this group.

SMILES	Yeast UUG start-1	EWS-Fli inh	miR122 inh	LGR2 inh	PglD DTNB	CFTR F508del cor	others
CCC(C)C(=O)N[C@@H](c1ccccc1)[C@@H](O)C(=O)O[C@H]1C[C@@]2(O)[C@@H](OC(=O)c3ccccc3)C3[C@](C)(C(=O)[C@H](OC(C)=O)C(=C1C)C2(C)C)[C@@H](O)C[C@H]1OC[C@@]31OC(C)=O (some centres not stated)	34.2	56.2*	-5.9	7.3	-2.7	10.6*
CC/C=C/CC(=O)N[C@@H](c1ccccc1)[C@@H](O)C(=O)O[C@H]1C[C@@]2(O)[C@@H](OC(=O)c3ccccc3)C3[C@](C)(C(=O)[C@H](OC(C)=O)C(=C1C)C2(C)C)[C@@H](O)C[C@H]1OC[C@@]31OC(C)=O (some centres not stated)	9.2	35.7	-1.2	/	-2.2	16.9*
COc1ccccc1OCC#CCN1CCOCC1	/	1.0	/	-30.5	/	5.5
Nc1cc(Cl)cc(Cl)c1	3.9	-5.7	-1.8	12.9	3.1	0.8
c1ccc2nc(N3CCNCC3)ccc2c1	-10.4	4.4	-6.1	8.1	-0.9	9.8*!
CC(=O)c1c(C)[nH]c(C(=O)N2CCC3(CC2)OCCO3)c1C	-15.7	/	1.6	/	-1.1	/
CC1=CC(=C2C(=O)NC(=S)NC2=O)C=C(C(F)(F)F)N1Cc1ccccc1	/	54.0*	/	-3.2	/	7.6
Oc1ccc(/C=N/NP(=S)(c2ccccc2)c2ccccc2)cc1	-38.1	/	96.0*	/	/	/
CNCCCc1ccccc1	-42.1	/	4.2	/	5.5	/
CC1(CCO)CC(C)(CCc2ccccc2)OO1 (configuration not stated)	-5.2	66.7*	/	/	3.6	-0.3
CCC1C(c2cc(OC)c(OC)c(OC)c2)c2cc3c(cc2OC1N1CCCC1)OCO3 (configuration not stated)	/	55.9*	/	11.4	/	2.7
CCCCCCN=Cc1c(O)n(C)c(=O)n(C)c1=O	-1.4	/	4.4	/	8.8	/
CN1/C(=C\C=C2C(=O)NC(=S)NC2=O)C(C)(C)c2ccccc21	/	9.1	-4.6	-1.9	/	0.9
CC1(C)OC(c2ccccc2)=C/C(=C/C=C2C(=O)NC(=S)NC2=O)O1	/	12.8	/	3.7	/	16.6*
COC(=O)C[C@]1(C(=O)OC)CN(C#N)N(c2ccc(Cl)cc2)C12c1ccccc1-c1ccccc12	-15.9	/	-15.4	77.9*	-3.1	/
CCC(=O)N1[C@@H]2Cn3c(ccc(-c4ccc(F)cc4)c3=O)[C@H]1[C@@H](C(=O)OC)[C@@H]2CO	/	-6.0	/	6.1	9.7	/
CC1CC(C)CC(C)C(O)C(C#N)=CC=CCC(C2CCCC2C(=O)O)OC(=O)CC(O)C(C)C1 (configuration not stated)	/	46.6	-13.3	74.8*	/	-1.8
OC[C@H]1O[C@@H](n2cnc3cc(Cl)c(Cl)cc32)[C@H](O)[C@@H]1O	-15.0	4.5	2.3	/	3.1	-3.9
CC(C)(C)NC(=S)N1Cc2ccccc2-n2nncc2C1	-13.4	13.5	0.2	-18.7	-1.1	2.6
COc1cc2c(c(OC)c1OC)-c1ccc(O)cc1[C@@H](NC(C)=O)CC2	-16.0	51.4*	/	0.8	5.6	2.7

The closing 5 compounds of the section above lead into the next.
SMILES	Yeast UUG start-1	EWS-Fli inh	miR122 inh	LGR2 inh	PglD DTNB	CFTR F508del cor	others
CCC(=O)N1[C@@H]2Cn3c(ccc(-c4ccc(F)cc4)c3=O)[C@H]1[C@@H](C(=O)OC)[C@@H]2CO	/	-6.0	/	6.1	9.7	/
CC1CC(C)CC(C)C(O)C(C#N)=CC=CCC(C2CCCC2C(=O)O)OC(=O)CC(O)C(C)C1 (configuration not stated)	/	46.6	-13.3	74.8*	/	-1.8
OC[C@H]1O[C@@H](n2cnc3cc(Cl)c(Cl)cc32)[C@H](O)[C@@H]1O	-15.0	4.5	2.3	/	3.1	-3.9
CC(C)(C)NC(=S)N1Cc2ccccc2-n2nncc2C1	-13.4	13.5	0.2	-18.7	-1.1	2.6
COc1cc2c(c(OC)c1OC)-c1ccc(O)cc1[C@@H](NC(C)=O)CC2	-16.0	51.4*	/	0.8	5.6	2.7
Cc1ccc(-c2cc(-c3ccccc3)cc(-c3ccccc3)[n+]2-c2ccccc2)cc1	-6.5	61.0*	-23.4	-1.9	-2.9	2.6
Cc1ccc(-c2cc(-c3ccc(C)cc3)[n+](-c3ccccc3)c(-c3ccc(C)cc3)c2)cc1	-13.3	/	-15.1	/	-7.6	/
CN(C)c1ccc(-[n+]2c(-c3ccccc3)cc(-c3ccccc3)cc2-c2ccccc2)cc1	/	52.5*	-26.0	20.4	/	8.3*
c1ccc(-c2cc(-c3ccccc3)[n+](-c3ccccc3)c(-c3ccccc3)c2)cc1	-3.2	68.9*	-59.2	102.5*	-2.0	0.9
CCOC(=O)c1cccc(-[n+]2c(-c3ccccc3)cc(-c3ccccc3)cc2-c2ccccc2)c1	-3.5	16.8	/	15.4	-1.4	2.4
Cc1ccc(-c2cc(-c3ccc(C)cc3)[n+](-c3ccc(C(=O)[O-])cc3)c(-c3ccc(C)cc3)c2)cc1	4.3	-4.7	1.6	0.6	2.8	-0.2
O=C(c1ccccc1F)c1cn(CC(=O)N2CCCC2)c2ccccc12	-6.9	/	2.0	/	-4.7	/
COc1cccc(C(c2nnnn2C2CCCC2)N2CCC3(CC2)C(=O)NCN3c2ccccc2)c1OC (configuration not stated)	-2.4	-13.0	50.6	-1.4	-4.0	0.6
CC(C)Oc1ccc(Cc2c(O)[nH]c(=O)[nH]c2=O)cc1	/	17.7	/	-1.8	/	-3.1
O=C(COc1ccccc1)N1CCN(C/C=C/c2ccccc2)CC1	-18.4	/	-4.8	/	-0.2	/
O=C(CF)N(O)c1ccc(C=Cc2ccccc2)cc1	/	-25.7	6.0	58.3*	/	6.5
COc1ccc(C[C@H]2NC[C@H](O)[C@H]2OC(C)=O)cc1	-18.4	66.2*	-12.9	/	0.1	-11.5
CCC(C(=O)N1C[C@H]2C[C@@H](C1)c1cccc(=O)n1C2)c1ccccc1 (some centres not stated)	-28.4	2.2	-2.5	-5.0	0.3	-7.9
CCCCCN1C(=O)c2cc(OC)ccc2[C@@]2(C(=O)OCC)Cc3cc(Cl)ccc3[C@@H]12	/	56.9*	/	66.6*	/	-1.4
CCOC(=O)[C@]12Cc3cc(Cl)ccc3[C@H]1N(C(C)C)C(=O)c1ccccc12	/	29.4	/	73.0*	/	-0.5
CCOC(=O)[C@]12Cc3cc(OC)ccc3[C@H]1N(C)C(=O)c1ccccc12	/	8.0	/	10.9	/	-2.8
CCOC(=O)[C@]12Cc3cc(OC)ccc3[C@H]1N(C1CCCCC1)C(=O)c1ccccc12	/	56.6*	/	50.4*	/	0.7
CCN(CC)C(=O)c1ccc(NC(=O)Nc2ccccc2F)cc1	/	61.7*	/	75.0*	/	0.9
CCC1(CC)C(=O)C=CNC1=O	-8.8	-1.2	-0.6	-3.2	-1.0	29.2*
O=C([C@@H]1N[C@@H]2c3cccc(=O)n3C[C@@H]2[C@H]1CO)N1CCCCC1	/	3.6	/	-7.7	/	2.3
O=[N+]([O-])c1ccc(N2CCOCC2)c2c1no[n+]2[O-]	54.2	24.4	3.5	/	-0.9	12.4*
Cc1ccccc1NC(=O)Cc1nc(COC(=O)Cc2ccccc2)cs1	-4.8	-2.0	-7.1	18.9	1.3	2.5
CC(C)C(NC(=O)C(C(C)C)N(C)C)C(=O)N(C)C(C(=O)N1CCCC1C(=O)N1CCCC1C(=O)NCc1ccccc1)C(C)C (configuration not stated)	/	55.9*	?	-16.4	/	2.7
CCCCOC(=O)C1=C(N)OC2=C(C(=O)CCC2)[C@]12C(=O)Nc1ccccc12	125.3*	/	6.0	/	3.8	/	Yeast UUG start-2=-0.5
O=C(Nc1ccccc1Cl)OC1CN2CCC1CC2 (configuration not stated)	/	-6.3	/	4.1	/	/
